Source: ChEMBL document CHEMBL1135455, “3-Aminopyrrolidinone farnesyltransferase inhibitors: design of macrocyclic compounds with improved pharmacokinetics and excellent cell potency” (J Med Chem, 2002)

The chains behind the UniProt entries cited, without tags or fusion partners. Where a name states a change or a piece, a line headed by the entry shows the natural chain unless it says otherwise.
UniProt Q12809: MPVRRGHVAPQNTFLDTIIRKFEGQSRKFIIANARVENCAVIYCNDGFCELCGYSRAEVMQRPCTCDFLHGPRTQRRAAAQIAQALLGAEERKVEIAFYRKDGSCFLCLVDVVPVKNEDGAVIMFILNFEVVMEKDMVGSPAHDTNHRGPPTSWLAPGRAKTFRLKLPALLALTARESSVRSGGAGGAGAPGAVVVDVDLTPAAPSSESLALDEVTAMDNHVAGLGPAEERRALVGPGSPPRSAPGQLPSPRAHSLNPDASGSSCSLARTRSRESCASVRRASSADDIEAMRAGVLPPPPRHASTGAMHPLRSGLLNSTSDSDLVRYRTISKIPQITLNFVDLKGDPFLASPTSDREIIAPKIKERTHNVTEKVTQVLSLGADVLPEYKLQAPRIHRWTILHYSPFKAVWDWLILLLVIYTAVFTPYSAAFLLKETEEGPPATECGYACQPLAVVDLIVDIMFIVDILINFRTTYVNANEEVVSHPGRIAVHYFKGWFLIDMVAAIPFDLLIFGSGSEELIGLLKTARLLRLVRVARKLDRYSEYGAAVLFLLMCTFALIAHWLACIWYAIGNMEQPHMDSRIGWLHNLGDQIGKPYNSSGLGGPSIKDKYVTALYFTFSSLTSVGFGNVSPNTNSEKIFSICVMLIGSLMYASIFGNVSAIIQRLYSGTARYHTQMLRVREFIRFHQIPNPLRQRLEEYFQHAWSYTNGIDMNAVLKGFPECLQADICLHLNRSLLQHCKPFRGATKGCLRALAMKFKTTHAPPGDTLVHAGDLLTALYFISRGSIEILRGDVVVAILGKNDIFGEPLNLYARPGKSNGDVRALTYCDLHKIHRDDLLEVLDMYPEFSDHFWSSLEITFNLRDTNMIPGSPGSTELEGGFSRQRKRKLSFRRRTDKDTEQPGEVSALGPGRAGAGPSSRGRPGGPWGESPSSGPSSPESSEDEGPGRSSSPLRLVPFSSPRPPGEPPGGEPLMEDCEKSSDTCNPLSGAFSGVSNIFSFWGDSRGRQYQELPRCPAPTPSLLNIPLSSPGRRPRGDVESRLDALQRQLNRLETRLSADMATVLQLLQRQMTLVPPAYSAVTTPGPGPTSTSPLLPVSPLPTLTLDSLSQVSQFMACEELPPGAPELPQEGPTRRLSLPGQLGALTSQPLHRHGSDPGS
UniProt P53609, whole entry, looked up: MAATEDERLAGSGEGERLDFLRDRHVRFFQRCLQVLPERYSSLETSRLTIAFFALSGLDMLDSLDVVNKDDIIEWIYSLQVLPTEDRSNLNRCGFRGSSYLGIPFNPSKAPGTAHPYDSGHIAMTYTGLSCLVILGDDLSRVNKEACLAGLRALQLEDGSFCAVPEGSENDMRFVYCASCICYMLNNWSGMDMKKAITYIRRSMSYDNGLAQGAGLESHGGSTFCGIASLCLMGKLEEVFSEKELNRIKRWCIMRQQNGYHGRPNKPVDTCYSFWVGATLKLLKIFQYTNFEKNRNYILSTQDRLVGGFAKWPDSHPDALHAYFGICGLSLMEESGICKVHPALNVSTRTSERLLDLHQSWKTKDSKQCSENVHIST

Legend:
[1] = molecular target: Voltage-gated inwardly rectifying potassium channel KCNH2 (Homo sapiens, UniProt Q12809); conditions: IP
[2] = molecular target: Geranylgeranyl transferase type I (Homo sapiens, UniProt P49354+P53609); assay: Inhibitory activity against geranylgeranyl transferase; format: protein-complex assay
[3] = molecular target: Protein farnesyltransferase (Homo sapiens, UniProt P49354+P49356); assay: Inhibition of human farnesyltransferase in an enzyme assay.

Compound | IC50 [1] [µM] | IC50 [2] [µM] | IC50 [3] [µM]
N#Cc1ccc2cc1Oc1ccc3c(c1)[C@H](CC3)N1CC[C@@H](NCc3cncn3C2)C1=O | 4.7 |  | 
N#Cc1ccc2cc1Oc1ccc3cccc(c3c1)N1CC[C@@H](NCc3cncn3C2)C1=O |  | 3.9 | 
N#Cc1ccc2cc1Oc1ccc3c(c1)[C@@H](CCC3)N1CC[C@@H](NCc3cncn3C2)C1=O [(1R,5R)-30-OXO-19-OXA-2,6,10,12-TETRAAZAHEXACYCLO[18.6.2.1^{2,5}.1^{14,18}.0^{8,12}.0^{23,27}]TRIACONTA-8,10,14(29),15,17,20(28),21,23(27)-OCTAENE-17-CARBONITRILE (STRUCTURAL MIX)] | 7 |  | 
N#Cc1ccc2cc1Oc1ccc3c(c1)[C@@H](CCC3)N1CC[C@H](NCc3cncn3C2)C1=O | 12 |  | 
N#Cc1ccc2cc1Oc1cccc(c1)CN1CC[C@@H](NCc3cncn3C2)C1=O |  | > 20 | 0.0035
N#Cc1ccc2cc1Oc1ccc3c(c1)[C@@H](CC3)N1CC[C@@H](NCc3cncn3C2)C1=O | 0.08 |  | 
N#Cc1ccc2cc1Oc1ccc3cccc(c3c1)N1CC[C@H](NCc3cncn3C2)C1=O |  | 0.65 | 
N#Cc1ccc2cc1Oc1ccc3c(c1)[C@H](CC3)N1CC[C@H](NCc3cncn3C2)C1=O | 2.7 |  | 
N#Cc1ccc2cc1Oc1ccc3c(c1)[C@@H](CC3)N1CC[C@H](NCc3cncn3C2)C1=O | 4.3 |  | 
N#Cc1ccc2cc1Oc1cccc(c1)CN1CC[C@H](NCc3cncn3C2)C1=O |  | > 20 | 
